Results as given in patent US6395913B1, “Recovery and purification of 3,4-epoxy-1-butene” (Eastman Chemical Company, priority 2001, dated 2002).

Test: Extraction affinity of water-immiscible solvents: distribution coefficients against a standard water/3-buten-1,2-diol/epoxybutene solution
Format: physicochemical
Conditions: 1 part solvent : 1 part standard solution (35% water/65% diol with approx. 10 wt% epoxybutene), room temperature, GC analysis; ONE PHASE = no phase separation
Experimental: This example compares the extraction affinity of various water-immiscible solvents for epoxybutene in the presence of aqueous absorbent mixtures, as occurs in the extraction zone of both embodiments of this invention. A standard mixture of 35% water and 65% 3-buten-1,2-diol (diol) was prepared. […] For each candidate extractant solvent specified in Table 1, one part by weight water-immiscible solvent was added to one part standard water-diol-epoxybutene solution in a separatory funnel. The mixture was vigorously shaken, allowed to settle, then separated into two liquid phases at room temperature. The aqueous and organic layers from the decantation were analyzed by gas chromatography to determine the composition of each layer. From these compositions, distribution coefficients were calculated for epoxybutene, water, diol, and the candidate extractant as follows: [formula]

Distribution Coefficients Epoxy-Butene: ONE PHASE
Substance: n-Butanol
